According to publication PMC2637922, “Active-Site Inhibitors of mTOR Target Rapamycin-Resistant Outputs of mTORC1 and mTORC2” (PLoS Biology, 2009):

Tested on: Akt phosphorylation (S473, T308) in L6 myotubes

Row | Structure (SMILES) | phosphorylation of both Akt sites (S473, T308) (L6 myotubes, insulin, in-cell Western) | Akt phosphorylation at T308 (L6 myotubes, insulin, significantly higher doses required than for S473) | insulin-stimulated phosphorylation of Akt at S473 (serum-starved L6 myotubes)
1 | COc1ccc2c(c1OC)N=C(NC(=O)c1cccnc1)N1CCN=C21 [PIK-90] | inhibited the phosphorylation of both Akt sites equipotently | – | –
2 | CC(C)n1nc(-c2cccc(C(=O)NC3=NCCS3)c2)c2c(N)ncnc21 [PP30] | – | loss of Akt phosphorylation at T308 | inhibited
